IC50 data for two compounds are collected here from the Kinase Knowledgebase extract (Sharma et al. 2016).

By UniProt entry, the sequences of proteins in these tests, tags left out.
EGFR (human), P00533, UniProt P00533, whole entry, looked up: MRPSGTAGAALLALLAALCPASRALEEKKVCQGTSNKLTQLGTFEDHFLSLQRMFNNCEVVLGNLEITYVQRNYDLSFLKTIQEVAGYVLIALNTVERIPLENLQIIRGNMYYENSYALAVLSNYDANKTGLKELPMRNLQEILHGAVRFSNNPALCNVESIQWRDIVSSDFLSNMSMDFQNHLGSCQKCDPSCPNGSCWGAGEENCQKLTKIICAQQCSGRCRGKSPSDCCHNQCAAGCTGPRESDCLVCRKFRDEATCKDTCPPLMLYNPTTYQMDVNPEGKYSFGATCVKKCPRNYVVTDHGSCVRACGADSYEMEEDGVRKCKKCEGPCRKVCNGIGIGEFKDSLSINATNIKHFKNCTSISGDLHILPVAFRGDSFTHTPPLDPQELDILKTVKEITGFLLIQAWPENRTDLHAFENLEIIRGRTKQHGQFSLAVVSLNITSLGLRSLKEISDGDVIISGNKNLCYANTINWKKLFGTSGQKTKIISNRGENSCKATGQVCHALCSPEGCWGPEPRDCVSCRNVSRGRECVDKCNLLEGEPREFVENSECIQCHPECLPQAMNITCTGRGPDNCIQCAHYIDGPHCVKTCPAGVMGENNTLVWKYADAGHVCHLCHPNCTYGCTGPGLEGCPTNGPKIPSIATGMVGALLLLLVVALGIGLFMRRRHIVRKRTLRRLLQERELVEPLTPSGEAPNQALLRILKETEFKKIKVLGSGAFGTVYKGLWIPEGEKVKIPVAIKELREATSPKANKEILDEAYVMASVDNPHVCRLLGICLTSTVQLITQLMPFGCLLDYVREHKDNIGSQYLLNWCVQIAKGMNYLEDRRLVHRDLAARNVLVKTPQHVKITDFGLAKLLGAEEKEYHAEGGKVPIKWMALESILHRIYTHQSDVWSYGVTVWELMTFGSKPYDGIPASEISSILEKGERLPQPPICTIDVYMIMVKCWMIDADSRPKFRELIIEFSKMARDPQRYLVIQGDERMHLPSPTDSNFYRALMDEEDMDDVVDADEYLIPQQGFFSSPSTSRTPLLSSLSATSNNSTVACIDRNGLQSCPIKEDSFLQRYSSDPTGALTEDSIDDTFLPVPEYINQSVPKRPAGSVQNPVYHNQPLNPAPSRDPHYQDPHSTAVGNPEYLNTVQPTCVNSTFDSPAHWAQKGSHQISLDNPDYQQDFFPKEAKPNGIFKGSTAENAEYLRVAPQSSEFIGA
EGFR (human), P00533, UniProt P00533, whole entry L858R, looked up: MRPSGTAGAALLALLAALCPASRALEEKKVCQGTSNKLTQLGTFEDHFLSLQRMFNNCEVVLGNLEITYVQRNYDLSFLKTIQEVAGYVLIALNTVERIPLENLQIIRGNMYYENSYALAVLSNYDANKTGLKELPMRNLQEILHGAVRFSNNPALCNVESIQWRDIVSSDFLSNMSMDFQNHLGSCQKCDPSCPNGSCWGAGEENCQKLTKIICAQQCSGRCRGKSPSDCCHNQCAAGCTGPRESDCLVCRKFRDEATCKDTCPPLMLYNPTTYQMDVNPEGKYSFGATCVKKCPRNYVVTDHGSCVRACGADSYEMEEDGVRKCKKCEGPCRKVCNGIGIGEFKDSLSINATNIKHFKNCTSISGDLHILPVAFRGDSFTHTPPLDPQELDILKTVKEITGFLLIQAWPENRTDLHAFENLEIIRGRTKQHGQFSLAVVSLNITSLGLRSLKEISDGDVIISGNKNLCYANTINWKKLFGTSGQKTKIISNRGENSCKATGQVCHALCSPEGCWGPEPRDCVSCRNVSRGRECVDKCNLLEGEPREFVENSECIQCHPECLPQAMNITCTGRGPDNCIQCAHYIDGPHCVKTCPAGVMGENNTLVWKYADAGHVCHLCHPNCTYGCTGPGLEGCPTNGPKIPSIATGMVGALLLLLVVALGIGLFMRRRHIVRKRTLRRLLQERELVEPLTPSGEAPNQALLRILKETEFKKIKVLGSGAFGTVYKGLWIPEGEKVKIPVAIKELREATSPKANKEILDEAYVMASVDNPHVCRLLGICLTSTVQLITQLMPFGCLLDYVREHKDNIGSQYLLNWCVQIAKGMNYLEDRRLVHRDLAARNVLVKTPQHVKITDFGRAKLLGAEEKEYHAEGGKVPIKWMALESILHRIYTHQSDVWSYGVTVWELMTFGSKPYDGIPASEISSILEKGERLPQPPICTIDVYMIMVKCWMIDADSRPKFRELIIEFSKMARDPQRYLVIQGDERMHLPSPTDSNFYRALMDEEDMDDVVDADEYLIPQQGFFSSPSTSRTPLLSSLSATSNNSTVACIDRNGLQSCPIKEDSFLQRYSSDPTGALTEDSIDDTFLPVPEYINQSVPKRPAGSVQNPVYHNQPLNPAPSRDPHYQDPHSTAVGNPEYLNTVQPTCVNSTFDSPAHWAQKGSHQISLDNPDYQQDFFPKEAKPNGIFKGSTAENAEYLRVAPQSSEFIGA
EGFR (human), P00533, UniProt P00533, whole entry T790M, looked up: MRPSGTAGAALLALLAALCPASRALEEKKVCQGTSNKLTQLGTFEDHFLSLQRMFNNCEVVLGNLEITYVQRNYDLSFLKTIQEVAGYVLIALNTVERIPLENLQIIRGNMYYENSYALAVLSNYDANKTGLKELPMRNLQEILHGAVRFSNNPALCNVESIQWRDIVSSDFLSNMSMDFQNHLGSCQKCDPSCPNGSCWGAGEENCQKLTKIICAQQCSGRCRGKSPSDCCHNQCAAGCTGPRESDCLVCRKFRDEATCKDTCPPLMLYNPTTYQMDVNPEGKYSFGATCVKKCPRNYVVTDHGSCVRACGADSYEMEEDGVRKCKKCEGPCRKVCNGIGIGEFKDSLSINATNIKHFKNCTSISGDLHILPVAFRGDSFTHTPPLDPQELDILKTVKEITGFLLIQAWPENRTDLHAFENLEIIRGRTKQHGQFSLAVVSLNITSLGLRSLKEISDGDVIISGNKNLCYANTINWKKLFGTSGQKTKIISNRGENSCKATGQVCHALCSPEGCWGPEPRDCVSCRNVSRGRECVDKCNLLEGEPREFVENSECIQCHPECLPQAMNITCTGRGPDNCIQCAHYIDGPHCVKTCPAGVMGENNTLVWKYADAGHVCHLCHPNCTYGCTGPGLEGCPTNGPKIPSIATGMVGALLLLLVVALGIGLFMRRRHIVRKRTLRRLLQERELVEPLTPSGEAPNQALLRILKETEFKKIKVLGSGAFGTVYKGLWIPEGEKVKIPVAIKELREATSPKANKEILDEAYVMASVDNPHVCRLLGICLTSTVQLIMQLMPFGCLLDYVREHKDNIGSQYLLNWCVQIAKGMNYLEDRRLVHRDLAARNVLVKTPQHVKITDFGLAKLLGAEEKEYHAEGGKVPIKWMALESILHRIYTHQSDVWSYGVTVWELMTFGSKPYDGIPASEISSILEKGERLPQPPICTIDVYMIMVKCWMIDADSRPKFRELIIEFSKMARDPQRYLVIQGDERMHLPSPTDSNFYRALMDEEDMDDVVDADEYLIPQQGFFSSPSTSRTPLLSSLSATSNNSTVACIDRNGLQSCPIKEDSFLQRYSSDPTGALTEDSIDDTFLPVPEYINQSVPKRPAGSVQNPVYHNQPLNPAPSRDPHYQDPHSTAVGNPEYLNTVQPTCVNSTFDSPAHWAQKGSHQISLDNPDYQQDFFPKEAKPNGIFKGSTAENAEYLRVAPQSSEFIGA
EGFR (Human), P00533, UniProt P00533, whole entry T790M/L858R, looked up: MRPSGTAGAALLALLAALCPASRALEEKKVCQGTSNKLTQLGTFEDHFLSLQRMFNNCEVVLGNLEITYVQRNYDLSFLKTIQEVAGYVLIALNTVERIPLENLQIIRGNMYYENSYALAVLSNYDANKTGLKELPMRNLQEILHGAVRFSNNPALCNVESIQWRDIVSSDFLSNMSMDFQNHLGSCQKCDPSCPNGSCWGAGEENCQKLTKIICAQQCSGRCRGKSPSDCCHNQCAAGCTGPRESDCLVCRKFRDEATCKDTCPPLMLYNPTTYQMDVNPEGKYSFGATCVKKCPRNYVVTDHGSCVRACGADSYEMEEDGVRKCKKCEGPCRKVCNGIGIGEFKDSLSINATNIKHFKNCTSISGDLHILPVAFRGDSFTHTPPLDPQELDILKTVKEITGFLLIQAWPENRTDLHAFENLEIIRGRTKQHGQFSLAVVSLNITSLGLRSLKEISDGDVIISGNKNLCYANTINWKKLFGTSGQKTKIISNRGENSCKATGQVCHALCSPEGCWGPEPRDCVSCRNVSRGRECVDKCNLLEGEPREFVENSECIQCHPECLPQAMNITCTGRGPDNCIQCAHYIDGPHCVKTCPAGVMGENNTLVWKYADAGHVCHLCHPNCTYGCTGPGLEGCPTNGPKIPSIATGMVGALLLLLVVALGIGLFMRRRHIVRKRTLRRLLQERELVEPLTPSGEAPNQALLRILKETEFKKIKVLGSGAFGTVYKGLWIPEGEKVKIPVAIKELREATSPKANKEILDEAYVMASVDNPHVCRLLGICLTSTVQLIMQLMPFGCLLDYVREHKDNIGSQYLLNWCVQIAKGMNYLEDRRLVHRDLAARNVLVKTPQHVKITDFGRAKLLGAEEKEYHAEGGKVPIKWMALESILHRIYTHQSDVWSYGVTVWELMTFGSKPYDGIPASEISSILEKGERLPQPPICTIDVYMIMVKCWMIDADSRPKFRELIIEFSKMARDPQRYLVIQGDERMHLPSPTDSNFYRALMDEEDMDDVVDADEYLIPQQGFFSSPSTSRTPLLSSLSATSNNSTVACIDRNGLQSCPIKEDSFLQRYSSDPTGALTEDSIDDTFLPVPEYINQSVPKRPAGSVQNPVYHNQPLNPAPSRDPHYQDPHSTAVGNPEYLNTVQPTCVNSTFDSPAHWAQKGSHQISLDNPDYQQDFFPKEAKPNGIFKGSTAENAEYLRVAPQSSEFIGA

Test [1] concerns the target EGFR (human), P00533 [WT]. Conditions: a549.
In test [2] the target is EGFR (human), P00533 [L858R].
Test [3] deals with EGFR (human), P00533 [T790M].
For test [4], the target named is EGFR (Human), P00533 [T790M/L858R].

The IC50 is the concentration that gives 50% inhibition. High values mean lower potency, low ones higher potency. Take `COc1cc(Nc2ncc(Cl)c(Nc3ccccc3C(=O)C(=O)N(C)C)n2)ccc1N1CCN(C)CC1`: in test [1], the IC50 worked out at 740 nM.

For the compound `C=CC(=O)Nc1cc(Nc2ncc(Cl)c(Nc3ccccc3C(=O)C(=O)N(C)C)n2)c(OC)cc1N1CCN(C)CC1`, the IC50 amounted to 422 nM in test [2], 15.8 nM in test [3] and 15.5 nM in test [4].
